Literature values in patent US8252895B2, “Cyclic peptide compounds” (Astellas Pharma Inc., priority 2005, dated 2012).

Test system: HCV
Conditions: M. Berenguer et al., J. Hepatol 32, 673-684 (2000); cited from earlier work

## Cyclosporin A
  effect on HCV in transplant patients: caused HCV to multiply in transplant patients
